# Target: Histone deacetylase 3 (Homo sapiens, UniProt O15379)
# The chains behind the UniProt entries cited, without tags or fusion partners. Where a name states a change or a piece, a line headed by the entry shows the natural chain unless it says otherwise.
# UniProt O15379: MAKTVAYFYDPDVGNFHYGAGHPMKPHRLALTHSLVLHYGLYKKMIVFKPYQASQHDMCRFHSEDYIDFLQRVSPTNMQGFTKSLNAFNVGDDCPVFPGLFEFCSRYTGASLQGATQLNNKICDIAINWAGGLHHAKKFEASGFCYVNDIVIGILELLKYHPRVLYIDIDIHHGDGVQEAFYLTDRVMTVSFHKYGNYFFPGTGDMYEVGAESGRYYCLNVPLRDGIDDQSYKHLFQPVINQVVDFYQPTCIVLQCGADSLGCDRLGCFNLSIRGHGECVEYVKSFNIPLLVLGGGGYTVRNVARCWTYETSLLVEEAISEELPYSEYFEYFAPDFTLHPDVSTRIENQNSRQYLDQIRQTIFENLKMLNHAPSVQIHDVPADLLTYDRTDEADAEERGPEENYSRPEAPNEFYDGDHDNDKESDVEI
# Test: Inhibition of human KDAC3 using FITC-labeled p53 acetylated peptide as substrate after 60 mins by fluorescence assay
smiles,measurement,value
O=C(O)CCCCN1C(=O)[C@H](CCC(=O)NC(c2ccccc2)(c2ccccc2)c2ccccc2)N=C(c2ccccc2)c2ccccc21,IC50,> 30 µM
